Measured values published in patent US20250313563A1, “GLYCOGEN SYNTHASE KINASE 3 INHIBITORS AND USES THEREOF” (The Broad Institute, Inc., priority 2022, published 2025).

Sequences of proteins named here, by UniProt entry; tags and fusion partners are left off.
UniProt P49840, whole entry: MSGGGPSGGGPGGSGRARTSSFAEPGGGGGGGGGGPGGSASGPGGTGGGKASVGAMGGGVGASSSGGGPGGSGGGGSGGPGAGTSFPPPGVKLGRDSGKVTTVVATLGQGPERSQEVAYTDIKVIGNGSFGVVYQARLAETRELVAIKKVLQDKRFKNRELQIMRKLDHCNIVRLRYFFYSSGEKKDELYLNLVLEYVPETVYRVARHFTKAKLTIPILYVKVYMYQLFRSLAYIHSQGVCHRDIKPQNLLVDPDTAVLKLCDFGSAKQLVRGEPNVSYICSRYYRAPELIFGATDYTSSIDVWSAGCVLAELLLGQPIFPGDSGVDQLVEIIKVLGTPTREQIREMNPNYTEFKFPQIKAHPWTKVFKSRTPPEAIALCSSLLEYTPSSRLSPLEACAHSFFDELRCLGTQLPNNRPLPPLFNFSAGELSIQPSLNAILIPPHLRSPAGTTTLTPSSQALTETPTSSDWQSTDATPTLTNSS
UniProt P49841, whole entry: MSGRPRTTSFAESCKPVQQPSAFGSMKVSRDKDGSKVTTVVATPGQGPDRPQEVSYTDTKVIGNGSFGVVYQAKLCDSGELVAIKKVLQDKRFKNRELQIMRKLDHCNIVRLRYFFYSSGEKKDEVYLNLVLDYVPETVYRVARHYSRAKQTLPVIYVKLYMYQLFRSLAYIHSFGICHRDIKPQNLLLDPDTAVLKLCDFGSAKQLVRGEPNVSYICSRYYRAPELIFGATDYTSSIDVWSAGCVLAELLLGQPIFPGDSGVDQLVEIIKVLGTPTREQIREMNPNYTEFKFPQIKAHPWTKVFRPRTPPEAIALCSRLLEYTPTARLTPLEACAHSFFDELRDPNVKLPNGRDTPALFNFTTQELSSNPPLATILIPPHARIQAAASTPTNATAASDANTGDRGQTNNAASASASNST

Assays:
[1] = target: GSK3α (GST-full length GSK3α) (Homo sapiens (Human), UniProt P49840); assay: GSK3α TR-FRET kinase assay; assay type: biochemical
[2] = target: GSK3b (GST-full length GSK3b) (Homo sapiens (Human), UniProt P49841); assay: GSK3b TR-FRET kinase assay; assay type: biochemical
[3] = read-out: GSK3-A TR-FRET BIOCHEMICAL (TR-FRET), IC50, 1 nM GSK3α, 4 μM ATP, 30 minute preincubation (Table 16)
[4] = read-out: GSK3-B TR-FRET BIOCHEMICAL (TR-FRET), IC50, 1 nM GSK3b, 2 μM ATP, 30 minute preincubation (Table 16)
[5] = read-out: GSK3-A TR-FRET BIOCHEMICAL (TR-FRET), GMean, IC50, 1 nM GSK3α, 4 μM ATP, 30 minute preincubation, geometric mean
[6] = read-out: GSK3-B TR-FRET BIOCHEMICAL (TR-FRET), GMean, IC50, 1 nM GSK3b, 2 μM ATP, 30 minute preincubation, geometric mean
[7] = read-out: GSK3-A (TR-FRET 1 mM ATP), GMean, IC50, 1 mM ATP, geometric mean
[8] = read-out: GSK3-B (TR-FRET 1 mM ATP), GMean, IC50, 1 mM ATP, geometric mean
[9] = read-out: GSK3-A TR-FRET BIOCHEMICAL (TR-FRET);, 1 nM GSK3α, 4 μM ATP, 30 minute preincubation, Table 16
[10] = read-out: GSK3-B TR-FRET BIOCHEMICAL (TR-FRET);, 1 nM GSK3b, 2 μM ATP, 30 minute preincubation, Table 16
[11] = read-out: GSK3-A TR-FRET BIOCHEMICAL (TR-FRET), IC50, 1 nM GSK3α, 4 μM ATP, 30 minute preincubation
[12] = read-out: GSK3-B TR-FRET BIOCHEMICAL (TR-FRET), IC50, 1 nM GSK3b, 2 μM ATP, 30 minute preincubation

Work on `CCC1(c2cccc(N(C)c3cccnc3C)c2)C2=C(CC(C)(C)CC2=O)Nc2n[nH]cc21` (centres unmarked) yielded an IC50 [1, 3] of 0.1 to 1 µM and an IC50 [2, 4] of 1 to 5 µM.

`CCC1(c2cccc(OC)c2)C2=C(CC(C)(C)NC2=O)Nc2n[nH]cc21` (centres unmarked) showed an IC50 [1, 5] of 0.1 to 1 µM and an IC50 [2, 6] of 1 to 5 µM.

Work on `CC[C@]1(c2cccc(-c3ccnc(C)c3F)c2)C2=C(CC(C)(C)CC2=O)Nc2n[nH]cc21` yielded an IC50 [1, 7] of 0.1 to 1 µM, an IC50 [1, 3] of less than 0.1 µM and an IC50 [2, 8] of 1 to 5 µM. The IC50 [2, 4] was less than 0.1 µM.

`CCC1(c2cccc(N(CC3CCCC3)C(C)=O)c2)C2=C(CC(C)(C)CC2=O)Nc2n[nH]cc21` (centres unmarked) was tested, and the IC50 [1, 3] was less than 0.1 µM and the IC50 [2, 4] was less than 0.1 µM.

With `CC[C@@]1(c2cccc(-c3cn(C)nc3C)c2)C2=C(CC3(CCCC3)NC2=O)Nc2n[nH]cc21` the IC50 [1, 7] was less than 0.1 µM, the IC50 [1, 3] was less than 0.1 µM and the IC50 [2, 8] was 1 to 5 µM. For the same compound, the IC50 [2, 4] was less than 0.1 µM.

`CCC1(c2cccc(C(F)(F)F)c2)C2=C(CC(C)(C)CC2=O)Nc2n[nH]c(C)c21` (centres unmarked) gave an IC50 [1, 5] of less than 0.1 µM and an IC50 [2, 6] of less than 0.1 µM.

For `CC[C@@]1(c2cccc(OC)c2)C2=C(CC(C)(C)CC2=O)Nc2n[nH]c(C(F)(F)F)c21` (single isomer, unassigned), the IC50 [1, 7] was less than 0.1 µM, the IC50 [1, 3] was less than 0.1 µM and the IC50 [2, 8] was 0.1 to 1 µM. The IC50 [2, 4] was less than 0.1 µM.

Compound `CC(C)(C)Cc1[nH]nc2c1[C@]1(CCc3cccc(F)c31)C1=C(CC(C)(C)CC1=O)N2` has an IC50 [1, 5] of 0.1 to 1 µM and an IC50 [2, 6] of less than 0.1 µM.

Work on `CC[C@@]1(c2cccc(S(=O)(=O)CCOC)c2)C2=C(CC(C)(C)CC2=O)Nc2n[nH]cc21` yielded an IC50 [1, 7] of 0.1 to 1 µM, an IC50 [1, 9] of less than 0.1 µM and an IC50 [2, 8] of 1 to 5 µM. It also gave an IC50 [2, 10] of less than 0.1 µM.

Work on `CC[C@]1(c2cccc(-c3cc(C)ncc3OC)c2)C2=C(CC(C)(C)NC2=O)Nc2n[nH]cc21` yielded an IC50 [1, 3] of 1 to 5 µM and an IC50 [2, 4] greater than 5 µM.

`CC[C@@]1(c2cccc(OC(C)C)c2)C2=C(CC(C)(C)CC2=O)Nc2n[nH]cc21` [Compound 811563] gave an IC50 [1, 5] of less than 0.1 µM and an IC50 [2, 6] of less than 0.1 µM.

For `CC[C@]1(c2cccc(N(C)C(=O)c3cnn(C)c3)c2)C2=C(CC(C)(C)CC2=O)Nc2n[nH]cc21`, the IC50 [1, 3] was less than 0.1 µM and the IC50 [2, 4] was less than 0.1 µM.

Compound `CC[C@]1(c2cccc(-c3cnn(-c4ccccc4)c3F)c2)C2=C(CC(C)(C)NC2=O)Nc2n[nH]cc21` has an IC50 [1, 3] of 0.1 to 1 µM and an IC50 [2, 4] of 1 to 5 µM.

`CC[C@]1(c2cccc(-c3cn(C)nc3C)c2)C2=C(CC(C)(C)NC2=O)Nc2n[nH]c(C(F)(F)F)c21` was tested, and the IC50 [1, 5] was 1 to 5 µM and the IC50 [2, 6] was greater than 5 µM.

`CC[C@@]1(c2cccc(-c3ccnc(OC)c3)c2)C2=C(CC(C)(C)CC2=O)Nc2n[nH]c(C)c21` gave an IC50 [1, 3] of 0.1 to 1 µM and an IC50 [2, 4] of 1 to 5 µM.

`CC[C@@]1(c2cccc(-c3cc(C)ncc3C)c2)C2=C(CC(C)(C)NC2=O)Nc2n[nH]c(C(F)(F)F)c21` was tested, and the IC50 [1, 9] was 0.1 to 1 µM and the IC50 [2, 10] was 0.1 to 1 µM.

For `CC[C@]1(c2cccc(Cl)c2)C2=C(CC(C)(C)CC2=O)Nc2n[nH]c(C)c21`, the IC50 [1, 5] was less than 0.1 µM and the IC50 [2, 6] was less than 0.1 µM.

For `CCC1(c2cccc(C(F)F)c2)C2=C(CC(C)(C)NC2=O)Nc2n[nH]c(C)c21` (centres unmarked), the IC50 [1, 5] was less than 0.1 µM and the IC50 [2, 6] was less than 0.1 µM.

For `CCc1cccc(C2(CC)C3=C(CC(C)(C)CC3=O)Nc3n[nH]cc32)c1` (centres unmarked) [Compound 949391], the IC50 [1, 9] was less than 0.1 µM and the IC50 [2, 10] was 0.1 to 1 µM.

`CC[C@]1(c2cccc(-c3ccccc3)c2)C2=C(CC(C)(C)CC2=O)Nc2n[nH]cc21` gave an IC50 [1, 5] of less than 0.1 µM and an IC50 [2, 6] of 0.1 to 1 µM.

`CCC1(c2cccc(-c3ccnc(C)c3C)c2)C2=C(CC(C)(C)CC2=O)Nc2n[nH]c(C(F)(F)F)c21` (centres unmarked) gave an IC50 [1, 7] of less than 0.1 µM, an IC50 [1, 9] of less than 0.1 µM and an IC50 [2, 8] of 0.1 to 1 µM. The IC50 [2, 10] was less than 0.1 µM.

With `CC[C@@]1(c2cccc(-c3ccnc(C)c3)c2)C2=C(CC3(CCC3)NC2=O)Nc2n[nH]cc21` the IC50 [1, 3] was 1 to 5 µM and the IC50 [2, 4] was greater than 5 µM.

Compound `CC1(C)CC(=O)C2=C(C1)Nc1n[nH]c(C(F)(F)F)c1C21CCc2c(F)cccc21` (centres unmarked) [Compound 806568] has an IC50 [1, 5] of less than 0.1 µM and an IC50 [2, 6] of less than 0.1 µM.

With `CC1(C)CC(=O)C2=C(C1)Nc1n[nH]cc1[C@]21C[C@@]2(CCN(CC(F)(F)F)C2)C1` (relative stereo) the IC50 [1, 11] was 0.1 to 1 µM and the IC50 [2, 12] was 0.1 to 1 µM.

`CCC1(c2cccc(C3CC4CCC(C3)O4)c2)C2=C(CC(C)(C)CC2=O)Nc2n[nH]cc21` (centres unmarked) gave an IC50 [1, 3] of 0.1 to 1 µM and an IC50 [2, 4] of 0.1 to 1 µM.

`CCC1(c2cccc(C(F)(F)F)c2)C2=C(CC(C)(C)CC2=O)Nc2n[nH]cc21` (centres unmarked) [Compound 790754] was tested, and the IC50 [1, 5] was less than 0.1 µM and the IC50 [2, 6] was less than 0.1 µM.

With `CC[C@]1(c2cccc(-c3c(C)c(C)nn3C)c2)C2=C(CC(C)(C)NC2=O)Nc2n[nH]cc21` the IC50 [1, 3] was less than 0.1 µM and the IC50 [2, 4] was 0.1 to 1 µM.

In the case of `CCC1(c2cccc(-c3cnn(C)c3C)c2)C2=C(CC(C)(C)NC2=O)Nc2n[nH]cc21` (centres unmarked), the IC50 [1, 11] is reported as less than 0.1 µM and the IC50 [2, 12] is reported as 0.1 to 1 µM.

`CC[C@]1(c2cccc(-c3cc(C)ncc3F)c2)C2=C(CC(C)(C)NC2=O)Nc2n[nH]c(C)c21` showed an IC50 [1, 3] of 1 to 5 µM and an IC50 [2, 4] greater than 5 µM.

Like-named read-outs stand apart in the source and are kept apart here.
